# Yeast mating assay 1: variants of the scFv Ab-14

Source: Engelhart et al. 2022 (doi:10.1038/s41597-022-01779-4), MIT Lincoln Laboratory and A-Alpha Bio; data file from the FLAb repository.

Binding partner: SARS-CoV-2 spike HR2 peptide, sequence PDVDLGDISGINAS.

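The library (AAYL50) carries one to three amino acid substitutions per variant, with no insertions or deletions. AlphaSeq pools MATa yeast showing the antibodies with MATalpha yeast showing the peptide. Mating (16 h, 30 °C) was followed by selection of diploids and sequencing of their barcodes. A regression on co-assayed BCL2-family reference pairs converts the normalised counts of each replicate to an apparent Kd. Each pool was mated in three replicate cultures.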

Parent scFv Ab-14: VH joined to VL by a (GGGGS)3 linker. Changes lie in the light chain CDRs alone.
VH: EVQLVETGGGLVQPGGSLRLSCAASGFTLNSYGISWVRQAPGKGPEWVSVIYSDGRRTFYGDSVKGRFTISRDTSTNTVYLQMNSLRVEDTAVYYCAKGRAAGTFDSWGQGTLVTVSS
VL: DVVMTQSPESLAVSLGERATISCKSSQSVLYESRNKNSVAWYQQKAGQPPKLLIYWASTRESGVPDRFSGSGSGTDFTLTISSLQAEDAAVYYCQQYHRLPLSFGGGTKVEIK

Substitutions are numbered in sequence along the VL above, starting at 1 (not Kabat). Scale: log10 of Kd in nM, estimated from mating counts; low values are strong binders. "n.d." means that the variant was in the library but no mating with the target was seen in that replicate; the authors take this as a sign of poor binding, and no number exists. For reference, the parent read 0.65 as the reference entry and 1.68 as a member of this library. Background: pairings of library AAYL50 with three empty control strains gave a value in 18% of cases (median 4.19, 5th percentile 2.99). Values in that range, when seen in few replicates, are hard to tell from nonspecific mating. The control count says in how many pairings with the empty strains this scFv gave a signal, with their mean in brackets.

changes,"replicates, log10 nM",signal with controls
L30W/A57L/S62T,2.02 1.72 2.47,1 of 9 (3.63)
S26D/S33G/Q95R,5.05 n.d. 4.91,5 of 9 (3.95)
V29E/E61I/Q96N,0.91 1.13 1.06,6 of 9 (4.14)
T59D/L100H/P101E,n.d. n.d. n.d.,0 of 9
S38V/T59V/H98N,n.d. n.d. n.d.,0 of 9
S26Q/V29P/N35F,1.33 1.44 1.55,3 of 9 (4.62)
K24C/S28H/V39M,2.41 n.d. n.d.,0 of 9
Q27L/W56A/R60Q,0.65 0.82 0.78,3 of 9 (5.79)
S25L/Y31W,0.42 0.22 0.33,0 of 9
V29I/W56R/Q95H,n.d. n.d. n.d.,0 of 9
R34D/W56R/S62I,-0.19 0.14 -0.07,2 of 9 (5.09)
S25D/S28P/S33T,1.15 1.23 1.28,5 of 9 (4.41)
L30K/Q96S/L102N,n.d. n.d. n.d.,0 of 9
A57T/R60S/L100T,n.d. n.d. n.d.,1 of 9 (3.80)
L30K/N35T,2.21 2.23 2.34,1 of 9 (5.41)
V39G/P101Y,n.d. n.d. n.d.,0 of 9
Y31A/R34Y/E61G,0.13 0.61 0.51,0 of 9
W56P/H98A/R99Q,1.94 n.d. n.d.,1 of 9 (3.92)
S28Q/A57G/H98C,n.d. n.d. n.d.,1 of 9 (3.00)
S33Q/R34T,3.70 4.00 n.d.,2 of 9 (4.56)
E32Q/S33F/R34N,1.52 1.44 1.64,1 of 9 (4.79)
E32V/W56D/S62P,0.62 0.81 0.63,2 of 9 (3.85)
A40S/E61T/R99N,2.97 n.d. n.d.,0 of 9
S25G/S33E/E61Q,0.95 0.96 1.17,2 of 9 (3.26)
S25H/W56I/R60W,n.d. n.d. n.d.,0 of 9
Y97A/L100Q/S103N,4.87 3.97 4.98,7 of 9 (4.84)
A40C/T59E/R60F,n.d. 2.82 n.d.,0 of 9
R34L/H98W/P101D,0.20 0.62 0.68,1 of 9 (1.98)
S28R/R99T/L102H,n.d. n.d. n.d.,2 of 9 (3.84)
A40W/Q95D,n.d. n.d. n.d.,0 of 9
V29P/H98A,0.13 0.47 0.31,4 of 9 (5.50)
A57E/H98I/L100G,4.03 n.d. 6.06,6 of 9 (4.49)
S28F/N35H/L102H,n.d. 4.26 5.54,5 of 9 (4.42)
V29S/S33D/E61M,0.27 0.57 0.61,3 of 9 (4.42)
S25D/V39K,n.d. n.d. 4.21,2 of 9 (3.48)
S25T/V29I/Q95D,n.d. n.d. n.d.,0 of 9
N37Y/H98A/R99A,1.10 1.32 1.11,2 of 9 (4.94)
T59G/L100I/P101S,3.39 4.18 3.64,5 of 9 (4.29)
N35P/V39K/P101G,n.d. n.d. n.d.,0 of 9
K24W/S38T/A57L,n.d. n.d. n.d.,0 of 9
V29R/S103L,2.86 3.37 3.24,1 of 9 (3.60)
E32C/A40P/R60H,n.d. n.d. n.d.,2 of 9 (4.96)
E32F/R99H/L100Y,3.61 2.22 3.03,0 of 9
S58A/S62A/S103T,n.d. n.d. n.d.,0 of 9
V29E/L30F/K36I,n.d. n.d. n.d.,1 of 9 (3.35)
E61C/Q96W/S103F,3.38 n.d. n.d.,0 of 9
V39M/W56I/Y97A,3.53 4.11 4.05,2 of 9 (3.79)
S33C/K36A/S58V,n.d. n.d. 4.74,4 of 9 (4.01)
L30Y/Y31S/S58A,3.58 2.99 2.79,6 of 9 (5.12)
S25K/V29G/K36D,0.96 1.09 1.14,1 of 9 (4.55)
V29Q/K36G,0.70 0.79 0.91,0 of 9